Each structure is given as a SMILES string.

By UniProt entry, the sequences of proteins in these tests, tags left out. Where a name states a change or a piece, a line headed by the entry shows the natural chain unless it says otherwise.
UniProt P43116: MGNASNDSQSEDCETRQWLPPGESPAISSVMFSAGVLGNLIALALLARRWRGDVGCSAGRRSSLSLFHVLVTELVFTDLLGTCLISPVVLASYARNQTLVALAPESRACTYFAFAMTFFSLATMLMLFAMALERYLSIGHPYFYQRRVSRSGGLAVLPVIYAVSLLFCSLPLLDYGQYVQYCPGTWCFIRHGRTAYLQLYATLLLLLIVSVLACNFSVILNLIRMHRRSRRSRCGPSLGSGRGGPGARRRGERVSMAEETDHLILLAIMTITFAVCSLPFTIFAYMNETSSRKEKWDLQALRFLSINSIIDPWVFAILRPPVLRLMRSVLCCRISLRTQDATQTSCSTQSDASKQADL

From publication PMC6365485 (British Journal of Pharmacology, 2019) come the findings set out here.

For assay [1], the target named is T1, human recombinant EP2 receptor (Homo sapiens, UniProt P43116). The experiment in a line: [3H]PGE2 displacement, membranes. Format: binding.
Assay [2] deals with T1, human recombinant EP2 receptor. Nature of the assay: cAMP accumulation, HEK cells. Format: cell-based.

`CCCCC[C@H](O)/C=C/[C@H]1[C@H](O)CC(=O)[C@@H]1C/C=C\CCCC(=O)O` [PGE2]: the Ki in assay [1] is 6.31 nM. For the same molecule, in assay [2], the concentration giving a half-maximal response (EC50) is 0.2 nM.
